Reference: patent publication US20090181098A1, “Hmg-Co-a Reductase Inhibitor Enhancement of Bone and Cartilage” (OsteoScreen IP, LLC, priority 2006, published 2009)

Tested on: neonatal murine calvaria
Assay: Neonatal murine calvarial explant culture, bone and cartilage formation
Type: cell-based, mouse
Settings: 7 days after exposure
Protocol: Experimental Summary: Determine the effectiveness of varying does of Lovastatin scaffolds on cartilage formation using murine calvarial cultures. Four day old calvarial explant cultures were incubated with media containing scaffold material that releases 0, 0.4 or 8 μg/day. The extent of new cartilage is then quantitated by imaging analysis.
Experimental Design Four day old Swiss white pups were employed as they are generally a healthy mouse strain. Calvaria from 4-day old Swiss white mouse pup mice were dissected out and cut in half. The excised hemi-calvariae were placed on metal grids (at the surface) in 1 ml BGJ media with Fitton-Jackson modification BGJ media (Sigma) containing 0.1% BSA with glutamine. The bones are incubated at 37° C. in a 5% humidified incubator for a period of 24 h and then transferred to wells containing 1 ml media with test compounds and further incubated under the above conditions for 72-96 h. The bones are then removed, fixed in 10% buffered formalin for 24 h, decalcified in 14% EDTA overnight, embedded in paraffin and 4 μm-thick sections cut and stained with H&E.
Dosing. Lovastatin scaffold material (LPGA polymer scaffold impregnated with 2.5 mg lovastatin, 5 mg pieces, estimated release is 0.4 μg/24 h) applied for the first 48 h and then removed. Calvaria are removed at day 7 and day 14. […] Cartilage formation is assessed histologically.

B1: BMP: bone morphogenetic protein BMP2, 100 ng/ml, positive control in calvarial culture (protein, UniProt P12643 283-396, looked up)
Bone morphogenetic protein 2: QAKHKQRKRLKSSCKRHPLYVDFSDVGWNDWIVAPPGYHAFYCHGECPFPLADHLNSTNHAIVQTLVNSVNSKIPKACCVPTELSAISMLYLDENEKVVLKNYQDMVVEGCGCR
- Bone formation in cultures of neonatal murine calvaria: stimulates bone formation
